Reference: ChEMBL document CHEMBL1144897, “A potent, selective inhibitor of matrix metalloproteinase-3 for the topical treatment of chronic dermal ulcers” (J Med Chem, 2003)

Target: T1, Interstitial collagenase (Homo sapiens, UniProt P03956)
T1 sequence (P03956 whole entry): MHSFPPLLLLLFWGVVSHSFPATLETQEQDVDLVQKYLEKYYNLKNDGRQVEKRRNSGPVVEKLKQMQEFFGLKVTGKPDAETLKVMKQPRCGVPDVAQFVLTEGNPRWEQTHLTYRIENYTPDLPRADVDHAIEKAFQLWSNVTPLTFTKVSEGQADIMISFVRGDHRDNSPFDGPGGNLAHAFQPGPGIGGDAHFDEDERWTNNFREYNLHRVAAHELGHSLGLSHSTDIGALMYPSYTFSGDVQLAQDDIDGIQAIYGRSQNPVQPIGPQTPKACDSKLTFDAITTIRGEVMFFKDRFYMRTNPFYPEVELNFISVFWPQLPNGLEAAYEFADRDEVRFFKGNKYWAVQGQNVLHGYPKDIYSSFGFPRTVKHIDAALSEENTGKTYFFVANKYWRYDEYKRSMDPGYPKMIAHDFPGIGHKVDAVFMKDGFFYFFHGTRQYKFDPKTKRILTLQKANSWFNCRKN
Test: Inhibition of human Matrix metalloprotease-1 (MMP-1)

Compound CNC(=O)[C@H](Cc1ccc(OC)cc1)NC(=O)[C@@H](CC(=O)NO)CC(C)C has an IC50 of 20 nM.
